Measurements as given in patent US20240139185A1, “COMPOUNDS THAT PARTICIPATE IN COOPERATIVE BINDING AND USES THEREOF” (Revolution Medicines, Inc., priority 2018, published 2024).

Amino acid sequences for entries named in this document (tags omitted). A change or cut given only in a name is not applied to a line headed by its entry.
UniProt P62937, whole entry: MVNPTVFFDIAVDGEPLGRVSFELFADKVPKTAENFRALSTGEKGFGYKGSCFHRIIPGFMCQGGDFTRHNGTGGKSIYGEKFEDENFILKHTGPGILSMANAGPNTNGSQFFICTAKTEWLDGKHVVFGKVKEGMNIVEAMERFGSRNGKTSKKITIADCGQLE

Columns and labels:
cyclophilin A (CYPA) = cyclophilin A (CYPA) (Homo sapiens, UniProt P62937); experiment: CYPA-compound binary complex formation by SPR; conditions: read-out: CYPA Binding Affinity
Procedure, shortened: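 CypA-Avi captured on a Biotin CAPture chip (4 μg/ml), reference flow cell subtracted. Compounds injected as 10-point 2-fold dilutions from 50 μM in HBS-P+ pH7.4 with 2% DMSO; 60 s association and 60 s dissociation, solvent-corrected. Affinity obtained by steady-state fitting.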

KRAS-G12C = KRAS-G12C (Homo sapiens, UniProt P01116+P62937, G12C); experiment: Percentage of crosslinking to KRAS-G12C in the presence of BME and CYPA (TOF-MS); conditions: compound 2 μM, CypA 5 μM, G12C-GMPNP 0.5 μM, BME
Description: • 1. 10×Incubation buffer: 125 mM HEPES pH 7.4, 750 mM NaCl, 10 mM MgCl2 • 2. 50 μM Protein A stock (CypA) in incubation buffer • 3. 5 μM Protein B (G12C-GMPNP) stock in incubation buffer • 4. 20 μM compound stock in 1×Incubation buffer with 10% DMSO • 5. 25 mM BME stock solution (prepared by diluting the BME stock in Milli Q water)
CypA 1-165 (final concentration 5 μM), test compound (final concentration 2 μM) and G12C-GMPNP (final concentration 0.5 μM) were incubated in the incubation buffer ([…]) for the requisite amount of time at room temperature. The samples were quenched with formic acid, final concentration 0.5%. 10 μL aliquots were injected to TOF-MS.
Sequence of Addition for a Final Incubation Volume of 50 μL • 1. 5 μL 10×incubation buffer • 2. 28 ul H2O • 3. 2 μL from 25 mM BME stock • 4. 5 μL CypA at 50 uM • 5. 5 μL from 5 μM G12C-GMPNP • 6. 5 μL compound from 20 μM compound stock
LC-MS is performed on an Agilent 6230 TOF-LC mass spectrometer equipped with an electrospray probe operated in positive ionization mode. 10 μL samples are injected on a Sepax Bio-C4, 300 Å, 2.1×100 mm column. The mobile phase is 0.1% (vol/vol) formic acid and 0.1% 1 mM ammonium formate in 95% water, 4.8% acetonitrile (A) and 0.1% (vol/vol) formic acid and 0.1% 1 mM ammonium formate in 95% acetonitrile and 4.8% water (B). […]

Row | Kd (cyclophilin A (CYPA)) [µM] | % Crosslinking with KRAS-G12C-GTP in presence of CYPA, 5 min incubation (KRAS-G12C) [%] | SMILES
1 | < 5 | 28 | CC(C)[C@@H](C(=O)N[C@H]1Cc2cc(O)cc(c2)-c2ccc3c(c2)N(C[C@H](C)COC(=O)[C@@H]2CCCN(N2)C1=O)CC3(C)/C=C/C#N)N(C)C(=O)C1CN(C(=O)CCl)C1 (single isomer, unassigned) [221]
2 | 5 to 15 | 62 | CC(C)[C@@H](C(=O)N[C@H]1Cc2cc(O)cc(c2)-c2ccc3c(c2)n(c(=O)n3C2CC2)C[C@H](C)COC(=O)[C@@H]2CCCN(N2)C1=O)N(C)C(=O)C1CN(C(=O)CCl)C1
